# Test results: ChEMBL document CHEMBL2176912, “Diphenyl purine derivatives as peripherally selective cannabinoid receptor 1 antagonists” (J Med Chem, 2012)
# Amino acid sequences for entries named in this document (tags omitted).
# UniProt P21554, whole entry: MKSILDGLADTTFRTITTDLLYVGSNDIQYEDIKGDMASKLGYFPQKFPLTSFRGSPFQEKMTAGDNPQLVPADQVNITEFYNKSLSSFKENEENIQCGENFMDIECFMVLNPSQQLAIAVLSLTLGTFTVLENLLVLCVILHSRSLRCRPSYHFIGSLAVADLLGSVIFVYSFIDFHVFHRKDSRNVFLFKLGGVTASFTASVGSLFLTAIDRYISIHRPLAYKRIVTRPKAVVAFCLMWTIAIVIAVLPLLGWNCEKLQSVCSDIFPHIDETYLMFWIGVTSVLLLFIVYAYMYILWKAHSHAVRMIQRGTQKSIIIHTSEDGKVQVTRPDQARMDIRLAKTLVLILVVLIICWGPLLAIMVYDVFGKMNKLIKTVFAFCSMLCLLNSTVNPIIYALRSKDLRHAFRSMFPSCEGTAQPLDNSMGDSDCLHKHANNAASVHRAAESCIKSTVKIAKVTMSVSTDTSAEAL
# What was measured:
# [1] = test system: CHO-K1; assay: Selectivity ratio of Ki for human CB2 receptor expressed in CHO-K1 cells to Ki for human CB1 receptor expressed in CHO-K1 cells
# [2] = biological target: Cannabinoid receptor 1 (Homo sapiens, UniProt P21554); assay: Antagonist activity at human CB1 receptor transfected in CHO-K1 cells co-expressing Galphaq16 assessed as intracellular calcium mobilization using Calcein-4 AM by fluorescence assay; type: functional, cell-based
# In short: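 CHO-K1 cells engineered to coexpress human CB1 and Gαq16. Calcium flux read with fluorescent dye Calcein-4 AM on a plate reader. Antagonism measured as rightward shift of the CP55940 concentration–response curve. Ke = [ligand]/(DR−1), where DR is the ratio of CP55940 EC50 with and without test agent. Values are averages of 3–6 measurements.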
Compound,Ratio Ki [1],Ke [2]
CCCCNC(=O)NC1(c2ccccc2)CCN(c2ncnc3c2nc(-c2ccccc2Cl)n3-c2ccc(Cl)cc2)CC1,> 74,
CCNC1(C(N)=O)CCN(c2ncnc3c2nc(-c2ccccc2Cl)n3-c2ccc(Cl)cc2)CC1 [OTENABANT],,8.7 nM
